Measured values reported in patent US20050250765A1, “Diazepinones as antiviral agents” (priority 2000, published 2005).

Each molecule was assayed on recombinant HSV-1, Us3::Tn5-lacZ (assay: microbe, parasite or virus in culture). Details: Human alphaherpesvirus 1, Vero, 20 h, Vero cell monolayer, infection 20 hours, β-galactosidase readout.
Format: cell-based, herpes simplex I virus (HSV-1)

Going from `CCCN1CC(C)(C)NC(=O)c2sc3ccc(OC)cc3c21` [TT, 3-Methoxy-7,7-dimethyl-5-propyl-5,6,7,8-tetrahydro-10-thia-5,8-diaza-benzo[a]azulen-9-one] to `COc1ccc(CN2CC(C)(C)NC(=O)c3sc4ccc(OC)cc4c32)cc1` [K, 3-Methoxy-5-(4-methoxy-benzyl)-7,7-dimethyl-5,6,7,8-tetrahydro-10-thia-5,8-diaza-benzo[a]azulen-9-one], the EC50 rises from 2 nM to 150 nM (75-fold). The first is the more potent here.

`C=C(C)CN1CCNC(=O)c2sc3ccc(F)cc3c21` [CC5, 3-Fluoro-5-(2-methyl-allyl)-5,6,7,8-tetrahydro-10-thia-5,8-diaza-benz[a]azulen-9-one] and `C=C(C)CN1CCNC(=O)c2sc3ccc([N+](=O)[O-])cc3c21` [Q, 5-(2-Methyl-allyl)-3-nitro-5,6,7,8-tetrahydro-10-thia-5,8-diaza-benz[a]azulen-9-one] are the same in EC50: 80 nM for the first, 80 nM for the second.

Compared with `COc1ccc2sc3c(c2c1)NC(Cc1ccccc1)CNC3=O` (stereo not drawn) [PP2, 6-Benzyl-3-methoxy-5,6,7,8-tetrahydro-10-thia-5,8-diaza-benzo[a]azulen-9-one], `COc1ccc2sc3c(c2c1)NCCNC3=O` [B, 3-Methoxy-5,6,7,8-tetrahydro-10-thia-5,8-diaza-benzo[a]azulen-9-one] is 10-fold higher in EC50: 10 nM for the first, 103 nM for the second.

`CCCCN1CCNC(=O)c2sc3ccc([N+](=O)[O-])cc3c21` [DD, 5-n-Butyl-3-nitro-5,6,7,8-tetrahydro-10-thia-5,8-diaza-benz[a]azulen-9-one] and `C=CCN1CCNC(=O)c2sc3ccc([N+](=O)[O-])cc3c21` [U, 5-Allyl-3-nitro-5,6,7,8-tetrahydro-10-thia-5,8-diaza-benz[a]azulen-9-one] cannot be ordered by EC50: 50 nM for the first, under 100 nM for the second.

First: COc1ccc2sc3c(c2c1)N(Cc1ccccc1C)CCNC3=O [WW3, 3-Methoxy-5-(2-methyl-benzyl)-5,6,7,8-tetrahydro-10-thia-5,8-diaza-benzo[a]azulen-9-one]
Second: COc1cccc(CN2CCNC(=O)c3sc4ccc(OC)cc4c32)c1 [C, 3-Methoxy-5-(3-methoxy-benzyl)-5,6,7,8-tetrahydro-10-thia-5,8-diaza-benzo[a]azulen-9-one]
The EC50 of the first is 160-fold higher: 32 nM for the first, 0.2 nM for the second. The second is the more potent here.

First: COc1cccc(CN2CCNC(=O)c3sc4ccc([N+](=O)[O-])cc4c32)c1 [V, 5-(3-Methoxy-benzyl)-3-nitro-5,6,7,8-tetrahydro-10-thia-5,8-diaza-benz[a]azulen-9-one]
Second: COc1ccc2sc3c(c2c1)N(Cc1ccc([N+](=O)[O-])cc1)CCNC3=O [SS3, 3-Methoxy-5-(4-nitro-benzyl)-5,6,7,8-tetrahydro-10-thia-5,8-diaza-benzo[a]azulen-9-one]
The EC50 of the first is 2.1-fold lower: 100 nM for the first, 210 nM for the second. The first is the more potent here.

Going from `COc1ccc2sc3c(c2c1)N(Cc1ccc(C#N)cc1)CCN(C)C3=O` [AA4, 4-(3-Methoxy-8-methyl-9-oxo-6,7,8,9-tetrahydro-10-thia-5,8-diaza-benzo[a]azulen-5-ylmethyl)-benzonitrile] to `COc1cccc(CN2CC(C)NC(=O)c3sc4ccc(OC)cc4c32)c1` (stereo not drawn) [EE2, 3-Methoxy-5-(3-methoxy-benzyl)-7-methyl-5,6,7,8-tetrahydro-10-thia-5,8-diaza-benzo[a]azulen-9-one], the EC50 falls from 440 nM to 29 nM (15-fold).

First: CC(C)CN1CCNC(=O)c2sc3ccc(S(C)(=O)=O)cc3c21 [RR2, 5-Isobutyl-3-methanesulfonyl-5,6,7,8-tetrahydro-10-thia-5,8-diaza-benz[a]azulen-9-one]
Second: CCCN1CCNC(=O)c2sc3ccc(OCC)cc3c21 [D, 3-Ethoxy-5-propyl-5,6,7,8-tetrahydro-10-thia-5,8-diaza-benzo[a]azulen-9-one]
The EC50 of the first is 6.5-fold higher: 520 nM for the first, 80 nM for the second. The second is the more potent here.

Going from `C=C(Cl)CN1CCNC(=O)c2sc3ccc(OC)cc3c21` [MM3, 5-(2-Chloro-allyl)-3-methoxy-5,6,7,8-tetrahydro-10-thia-5,8-diaza-benzo[a]azulen-9-one] to `COc1ccc2oc3c(c2c1)N(CCC(C)C)CCNC3=O` [YY5, 3-Methoxy-5-(3-methyl-butyl)-5,6,7,8-tetrahydro-10-oxa-5,8-diaza-benzo[a]azulen-9-one], the EC50 rises from 2 nM to 30 nM (15-fold).

Compared with `O=C1NCCNc2c1ccc1cnccc21` [F, 8,9,10,11-Tetrahydro-3,8,11-triaza-cyclohepta[a]naphthalen-7-one], `CN1CCNC(=O)c2ccc3cnccc3c21` [GG4, 11-Methyl-8,9,10,11-tetrahydro-3,8,11-triaza-cyclohepta[a]naphthalen-7-one] is 6.4-fold higher in EC50: 55 nM for the first, 350 nM for the second.

Same assay, conditions: Vero cell monolayer, infection 20 hours, β-galactosidase readout

`COc1cccc(CN2CC(C)NC(=O)c3sc4ccc(OC)cc4c32)c1` (stereo not drawn) [O, 3-Methoxy-5-(3-methoxy-benzyl)-7-methyl-5,6,7,8-tetrahydro-10-thia-5,8-diaza-benzo[a]azulen-9-one] showed an EC50 of 15 nM.
